Earlier results, collected in PMC7395068, “The evolution of strategies to minimise the risk of human drug-induced liver injury (DILI) in drug discovery and development” (Archives of Toxicology, 2020).

Details: binary in vivo human DILI call; ref Chen 2016

B1: ibritumomab tiuxetan (conjugate, chains of the INN, looked up)
heavy: QAYLQQSGAELVRPGASVKMSCKASGYTFTSYNMHWVKQTPRQGLEWIGAIYPGNGDTSYNQKFKGKATLTVDKSSSTAYMQLSSLTSEDSAVYFCARVVYYSNSYWYFDVWGTGTTVTVSAPSVYPLAPVCGDTTGSSVTLGCLVKGYFPEPVTLTWNSGSLSSGVHTFPAVLQSDLYTLSSSVTVTSSTWPSQSITCNVAHPASSTKVDKKIEPRGPTIKPCPPCKCPAPNLLGGPSVFIFPPKIKDVLMISLSPIVTCVVVDVSEDDPDVQISWFVNNVEVHTAQTQTHREDYNSTLRVVSALPIQHQDWMSGKEFKCKVNNKDLPAPIERTISKPKGSVRAPQVYVLPPPEEEMTKKQVTLTCMVTDFMPEDIYVEWTNNGKTELNYKNTEPVLDSDGSYFMYSKLRVEKKNWVERNSYSCSVVHEGLHNHHTTKSFSR
light: QIVLSQSPAILSASPGEKVTMTCRASSSVSYMHWYQQKPGSSPKPWIYAPSNLASGVPARFSGSGSGTSYSLTISRVEAEDAATYYCQQWSFNPPTFGAGTKLELKRADAAPTVFIFPPSDEQLKSGTASVVCLLNNFYPREAKVQWKVDNALQSGNSQESVTEQDSKDSTYSLSSTLTLSKADYEKHKVYACEVTHQGLSSPVTKSFN
modifications: tiuxetan chelator
For B1, the “DILI +VE (5-8), DILI -VE (-4)” value is listed as “-VE”.
